Earlier results, collected in patent publication US5468875A, “1-azabicycloheptane derivatives” (American Home Products Corporation, priority 1994, dated 1995).

System: m1 receptors
Conditions: cited from earlier work

Compound: C[N+](C)(C)CCOC(N)=O [carbachol]
- activation of m1 receptors: able to fully activate m1 receptors
